12 molecules from patent US10155764B2, “Therapeutic compounds and uses thereof” (GENENTECH, INC., priority 2014, dated 2018) can be followed below.

By UniProt entry, the sequences of proteins in these tests, tags left out. Residues count along the entry.
UniProt Q92831, 719-832: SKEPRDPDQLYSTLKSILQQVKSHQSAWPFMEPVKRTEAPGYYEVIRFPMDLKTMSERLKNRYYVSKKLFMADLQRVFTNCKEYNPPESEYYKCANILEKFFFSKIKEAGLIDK

The experiment concerns the target PCAF719-832 bromodomain (Homo sapiens (Human), UniProt Q92831). The experiment is described as follows: PCAF AlphaLisa binding assay. As to conditions: PCAF bromodomain 225 nM, biotinylated small molecule ligand 6 nM. (In general: Bead proximity is the source of the signal in Alpha formats.)
`CN1CCCCC(Nc2nn(C)c(=O)c3ccccc23)C1` (racemic) [Example 45, 2-methyl-4-((1-methylazepan-3-yl)amino)phthalazin-1(2H)-one]: the IC50 – broadly, the point on the concentration scale where inhibition reaches its midpoint – was determined as 1200 nM.

Take `CN(C)[C@@H]1CCCC[C@H]1Nc1nn(C)c(=O)c2ccccc12` (racemic) [Example 52, 4-(((1R,2R)-2-(dimethylamino)cyclohexyl)amino)-2-methylphthalazin-1(2H)-one]: the half-maximal inhibitory concentration (IC50) is 820 nM.

Regarding `CN(C)[C@@H]1CCC[C@H]1Nc1nn(C)c(=O)c2ccccc12` (racemic) [Example 53, 4-(((1R,2R)-2-(dimethylamino)cyclopentyl)amino)-2-methylphthalazin-1(2H)-one], the IC50 amounted to 2100 nM. Against the preceding molecule, the IC50 is about 2.6-fold higher.

For the molecule `CN(C)[C@H]1CCC[C@H]1Nc1nn(C)c(=O)c2cccnc12` (single isomer, unassigned) [Example 16A], the IC50 is 57 nM.

`CN(C)[C@@H]1CCC[C@@H]1Nc1nn(C)c(=O)c2cccnc12` (single isomer, unassigned) [Example 16B] displayed an IC50 of 860 nM.

`CN(C)C1CN(c2ccc(Cl)cc2)CCC1Nc1nn(C)c(=O)c2cccnc12` (single isomer, unassigned) [Example 32B, 8-((1-(4-chlorophenyl)-3-(dimethylamino)piperidin-4-yl)amino)-6-methylpyrido[2,3-d]pyridazin-5(6H)-one] gave an IC50 of 69 nM.

For `CN(C)[C@H]1CN(c2ccc(Cl)cc2)CC[C@H]1Nc1nn(C)c(=O)c2ccccc12` (single isomer, unassigned) [Example 33], the IC50 was 170 nM.

The molecule `CN(C)[C@H]1CN(c2ccc(Cl)cc2)CC[C@@H]1Nc1nn(C)c(=O)c2ccccc12` (single isomer, unassigned) [Example 34] registered an IC50 of 40 nM.

With `C[C@H](Nc1nn(C)c(=O)c2ccccc12)[C@H](c1cnn(-c2ccccc2)c1)N(C)C` (single isomer, unassigned) [Example 57], the IC50 was found to be 75 nM.

With `C[C@H](Nc1nn(C)c(=O)c2ccccc12)[C@H](c1ccc(Oc2ccccc2)cc1)N(C)C` (single isomer, unassigned) [Example 63], the concentration for half-maximal inhibition (IC50) came out at 25 nM.

Turning to `CC(=O)Nc1cccc([C@@H]([C@H](C)Nc2nn(C)c(=O)c3cccnc23)N(C)C)c1` (single isomer, unassigned) [Example 72], the IC50 was 99 nM.

`C[C@H](Nc1nn(C)c(=O)c2cccnc12)[C@H](c1ccc(C(=O)N2CCCC2)cc1)N(C)C` (single isomer, unassigned) [Example 83]: the IC50 came to 71 nM.
